For the test, the target named is Androgen Receptor (Homo sapiens, UniProt P10275). Put plainly: Androgen Receptor ELISA assay (PathScan AR ELISA) in VCaP cells: AR degradation, Dmax and DC50. Format: cell-based. On the technique in general: ELISA stands for enzyme-linked immunosorbent assay.

The chains behind the UniProt entries cited, without tags or fusion partners.
UniProt P10275, whole entry: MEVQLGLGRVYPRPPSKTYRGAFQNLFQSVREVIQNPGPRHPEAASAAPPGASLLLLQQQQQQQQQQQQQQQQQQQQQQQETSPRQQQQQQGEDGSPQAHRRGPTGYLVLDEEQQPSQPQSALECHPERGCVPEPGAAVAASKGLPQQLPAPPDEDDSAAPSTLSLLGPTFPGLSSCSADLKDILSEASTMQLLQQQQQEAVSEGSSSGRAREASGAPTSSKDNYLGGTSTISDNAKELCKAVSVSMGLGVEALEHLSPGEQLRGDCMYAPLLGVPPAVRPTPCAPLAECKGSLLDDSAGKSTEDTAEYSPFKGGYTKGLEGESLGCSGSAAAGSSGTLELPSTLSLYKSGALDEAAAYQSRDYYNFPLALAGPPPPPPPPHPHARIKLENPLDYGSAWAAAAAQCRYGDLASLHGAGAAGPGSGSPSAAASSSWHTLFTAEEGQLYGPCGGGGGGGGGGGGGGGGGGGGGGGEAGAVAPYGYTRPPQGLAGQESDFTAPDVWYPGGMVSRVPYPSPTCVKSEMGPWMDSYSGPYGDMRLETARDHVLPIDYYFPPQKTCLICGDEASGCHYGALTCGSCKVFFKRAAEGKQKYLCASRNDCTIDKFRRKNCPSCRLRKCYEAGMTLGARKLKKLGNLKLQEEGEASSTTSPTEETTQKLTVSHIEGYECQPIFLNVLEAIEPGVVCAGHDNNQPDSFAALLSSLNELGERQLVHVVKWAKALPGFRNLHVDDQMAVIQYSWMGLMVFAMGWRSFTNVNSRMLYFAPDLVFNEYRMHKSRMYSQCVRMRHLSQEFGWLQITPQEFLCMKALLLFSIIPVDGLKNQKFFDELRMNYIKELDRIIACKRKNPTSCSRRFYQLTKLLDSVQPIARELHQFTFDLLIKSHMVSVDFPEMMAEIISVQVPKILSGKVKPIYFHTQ

Where only a bound is given, the exact number is not on record here.

Turning to `Cc1ncoc1-c1ccc([C@H](C)NC(=O)[C@@H]2C[C@@H](O)CN2C(=O)[C@@H](NC(=O)COC[C@H]2CC3(C2)C[C@H](COc2ccc(N4C(=S)N(c5ccc(C#N)c(C(F)(F)F)c5)C(=O)C4(C)C)cc2)C3)C(C)(C)C)cc1` (single isomer, unassigned), the “VCaP Dmax (%)” value (Table 34) is on record as “++++ (71% ≤ Dmax)”. For the setting “read-out: VCaP DC50, Table 34”, the DC50 is under 50 nM.

Usually DC50 stands for the concentration giving 50% degradation.
